Literature values, collected in paper PMC10227131 (Pharmacological Reports, 2023).
Structures can show the parent of a compound that is named as a salt.

Tested on: MOP receptor
Settings: inhibition of forskolin-stimulated cAMP formation, HEK cells stably expressing MOP receptor; ref Kuo et al. [36]; cited from earlier work
Excerpt: | column: In vitro agonist or antagonist activity* / MOP receptor

## CN1CC[C@]23c4c5ccc(O)c4O[C@H]2[C@@H](O)C=C[C@H]3[C@H]1C5 [morphine, morphine hydrochloride]
  In vitro agonist or antagonist activity, MOP receptor: Agonist^c
